# AlphaSeq binding of Ab-14 light chain variants to a spike HR2 peptide

From the AlphaSeq antibody data of Li et al. 2023 (doi:10.1038/s41467-023-39022-2), copy in the FLAb collection.

All variants were tested on one target, the spike HR2 peptide PDVDLGDISGINAS (SARS-CoV-2).

Parent scFv Ab-14: VH joined to VL by three GGGGS repeats. Changes lie in the light chain CDRs alone.
VH: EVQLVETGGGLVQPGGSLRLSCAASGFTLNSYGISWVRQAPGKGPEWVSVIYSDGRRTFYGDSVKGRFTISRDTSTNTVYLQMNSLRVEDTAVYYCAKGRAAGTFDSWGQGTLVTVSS
VL: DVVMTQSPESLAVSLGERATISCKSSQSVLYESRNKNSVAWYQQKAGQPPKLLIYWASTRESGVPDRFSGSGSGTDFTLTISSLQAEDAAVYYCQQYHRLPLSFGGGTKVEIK

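Phage display of a naive human antibody library on the peptide gave the parent. The variants were designed computationally from a first round of random CDR variants and then made and measured. Group labels follow the data file (Ctrl: baseline library sampled from a position-specific scoring matrix, with some repeated check sequences; Rand: our label for a block that the file lists under HC and that is probably the random mutants of the ten best first-round binders; En: ensemble of fine-tuned language models; GP: Gaussian process model; HC: hill climbing; Gen: genetic algorithm; Gibbs: Gibbs sampling; a sequence that several methods proposed may carry one label only). In AlphaSeq, yeast of one mating type display the scFv and yeast of the other type display the target. Pairs that bind mate more often; barcode pairs of the diploids are counted by sequencing. Read counts were normalised to the haploid input and turned into Kd by a linear fit to BCL2-family pairs of known affinity, for each replicate. The assay was run in six technical replicates.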

Each variant is given by its three light chain CDRs, as the data file delimits them; those of the parent are KSSQSVLYESRNKNSVA, WASTRES, QQYHRLPLS.
Values are log10 of the apparent Kd in nM; lower means stronger binding.
Replicates are averaged; those with no signal do not enter the mean.
An entry "not detected" has no value in the source: the pair was not observed among the diploids in any replicate. This suggests poor binding but is not conclusive.

| CDR-L1 | CDR-L2 | CDR-L3 | group | mean log10 Kd (nM) | seen in | signal with controls |
|---|---|---|---|---|---|---|
| KSSPSYLYESRNTNSVA | EASTRES | QQYHRLPLS | GP_HC | 0.14 | 6 of 6 | 2 of 18 |
| KSSQSVEMESRNKNSVA | DASTRES | QQYHRLPLS | GP_HC | 0.01 | 6 of 6 | 1 of 18 |
| TISGMTNQATSKHNSVA | NVTMRPE | QQYHRLPLS | En_Gen | 1.24 | 6 of 6 | 1 of 18 |
| KSSQSVLQESRNKNSVA | WASTREY | QQYARLPLS | Ctrl | 1.72 | 5 of 6 | 1 of 18 |
| KSSHSVLDESSNKNSVA | DASTRES | QQYHRLPLS | Ctrl | 0.29 | 6 of 6 | 1 of 18 |
| MFSQLFMYGSRNYNSVA | QASTREN | QQYHRLPLI | En_HC | 0.43 | 6 of 6 | 1 of 18 |
| KLSMSMLMESKHKNSVA | ENSTREE | QHYHRLPLS | En_HC | 0.66 | 6 of 6 | 4 of 18 |
| MLGSQPTSFRDNKHAIA | DDEARTS | QQYDRLPLS | En_Gibbs | 1.46 | 5 of 6 | 1 of 18 |
| HVSEMIFAQSKMRNSVA | ENSTRES | QQYDRLPLS | En_HC | 2.21 | 6 of 6 | 1 of 18 |
| KSSQSVLYESRNKNSVA | HASTRFS | QQYHRLPLS | Ctrl | 1.91 | 6 of 6 | 2 of 18 |
| KVSDPMVEWYANQSAVA | DHADVQH | QQYDRLPLS | En_Gibbs | 2.63 | 3 of 6 | 1 of 18 |
| HLSQSVLYESRNKNSVA | NASQRLS | QQYHRLPLS | GP_Gen | -0.18 | 6 of 6 | 2 of 18 |
| MVTQMAMTGMKNKRSVA | NAETREN | QQYHRLPLI | En_Gen | 1.05 | 6 of 6 | 1 of 18 |
| KSLQSVLYESRNKDSVA | HASTRED | QQYHRLPLS | Rand | 0.31 | 6 of 6 | 0 of 18 |
| MISLCQNSYEDANNSIA | DRNERAM | QQYGRLPLV | En_Gibbs | 1.84 | 6 of 6 | 0 of 18 |
| QIYQAMHTLSQVKDNVA | DVSERGS | QQYFRLPLS | En_Gen | 0.41 | 6 of 6 | 1 of 18 |
| KLWQSTLYESRNKNSVA | WAPTRES | QQYHRLPVS | Rand | not detected | 0 of 6 | 0 of 18 |
| ILYESVGTLSRNKNSVA | DNSTREY | QQYDRLPLS | En_HC | 2.74 | 4 of 6 | 0 of 18 |
| QLSSITGHMQMIKNNVA | EMETREN | QQYDRLPLS | En_Gen | 0.94 | 6 of 6 | 1 of 18 |
| KCQISDEQESRQKNSVA | HASLRES | QQYHRLPLS | GP_Gibbs | 0.25 | 6 of 6 | 1 of 18 |
| NVGQKMDGESRNKNSVA | HQSTRED | QHYHRLPLS | En_HC | 1.41 | 6 of 6 | 0 of 18 |
| KAQQSELYGERNSNSVA | HASLRES | QQYHRLPLS | GP_Gibbs | 0.47 | 6 of 6 | 0 of 18 |
| KSSQSVLYESVNKNSVA | WASTRES | QQYHRLPLS | Ctrl | 1.30 | 5 of 6 | 2 of 18 |
| KVSEFMKGLTMRKDSIA | DNNTRGA | QQYDRLPLS | En_Gen | 0.79 | 6 of 6 | 1 of 18 |
| TIAGLANYESTNKNSVA | ELTMRGQ | QQYERLPLS | En_HC | 0.41 | 6 of 6 | 2 of 18 |
| KLSMSMLYESRNKNSVA | HASTRES | QQYHRLPLS | GP_Gen | -0.09 | 6 of 6 | 5 of 18 |
| TLLYGVTEAAKPGKAIA | GNEERAQ | QQYFRLPLS | En_Gibbs | 0.12 | 6 of 6 | 0 of 18 |
| YLSQSVLYESRNKNSVA | NASTREQ | QQYHRLPLS | GP_Gen | 0.35 | 6 of 6 | 0 of 18 |
| TISQLMLMESRNKNNVA | GESTRES | QCYHRLPLS | En_HC | 0.54 | 6 of 6 | 0 of 18 |
| TISQSANQESHNKNSVA | DLSVRGS | QQYHRLPLS | En_HC | 0.70 | 6 of 6 | 2 of 18 |
| KVSQSVLNESRNKNSVA | DASTRES | QQYHRLPLS | GP_HC | 0.29 | 6 of 6 | 0 of 18 |
| MISQIYNMGQFAINSVA | QASQRNS | QQYDRLPLM | En_Gen | 1.21 | 6 of 6 | 2 of 18 |
| KALQSVLYESRNKNSVA | HASTRED | QQYHRLPLS | GP_HC | 0.16 | 6 of 6 | 0 of 18 |
| KIELGLTRYNNGYSAVA | NETQKAN | QQYSQLPLV | En_Gibbs | 1.57 | 6 of 6 | 2 of 18 |
| KLSQSNLYESRNKNSVA | GASTRES | QQYHRLPLS | GP_Gen | 0.05 | 6 of 6 | 2 of 18 |
| MLGMTVMQGMVSRNNVA | QEETRAN | QQYHHLPLS | En_HC | 2.08 | 3 of 6 | 2 of 18 |
| KSSQSVLYESRNKNSVC | NASTRES | QQYHRLPFS | Ctrl | 0.38 | 6 of 6 | 0 of 18 |
| KLEQSWNYESRNKNSVA | NASTRES | QQYHRLPLS | GP_HC | -0.30 | 6 of 6 | 2 of 18 |
| KLSQSELYESRNFNSVA | NASTRMS | QQYHRLPLS | GP_Gen | 0.28 | 6 of 6 | 1 of 18 |
| KSEMLVDYKDRNLNSVA | NASTRLS | QQYHRLPLS | GP_Gibbs | 0.32 | 6 of 6 | 2 of 18 |
| KFQQSMGYESRNKNSVA | EASTRSS | QQYHRLPLS | GP_Gibbs | -0.20 | 6 of 6 | 1 of 18 |
| HMSALTLGGMRARNSVA | QMTTREN | QQYDRLPLS | En_Gen | 0.31 | 6 of 6 | 1 of 18 |
| MLSQMTGLGMKVSNSVA | QGSMRFN | QQYHRLPLI | En_Gen | 1.07 | 6 of 6 | 0 of 18 |
| QIDSFYQHGTDAKQAMA | DVSVRTQ | QQYSRLPLS | En_Gibbs | -0.39 | 6 of 6 | 0 of 18 |
| KLREVQHVETKQKNNVA | NNSTRES | QDYYRLPLS | En_HC | 1.57 | 1 of 6 | 0 of 18 |
| KLYQSDLYESRNKNSVA | QASTRES | QQYHRLPLS | GP_Gen | 0.07 | 6 of 6 | 0 of 18 |

For reference, 6 entries of the list once more:

{"CDR-L1": "MLGMTVMQGMVSRNNVA", "CDR-L2": "QEETRAN", "CDR-L3": "QQYHHLPLS", "group": "En_HC", "mean log10 Kd (nM)": "2.08", "seen in": "3 of 6", "signal with controls": "2 of 18"}
{"CDR-L1": "KSSQSVLQESRNKNSVA", "CDR-L2": "WASTREY", "CDR-L3": "QQYARLPLS", "group": "Ctrl", "mean log10 Kd (nM)": "1.72", "seen in": "5 of 6", "signal with controls": "1 of 18"}
{"CDR-L1": "MLGSQPTSFRDNKHAIA", "CDR-L2": "DDEARTS", "CDR-L3": "QQYDRLPLS", "group": "En_Gibbs", "mean log10 Kd (nM)": "1.46", "seen in": "5 of 6", "signal with controls": "1 of 18"}
{"CDR-L1": "HVSEMIFAQSKMRNSVA", "CDR-L2": "ENSTRES", "CDR-L3": "QQYDRLPLS", "group": "En_HC", "mean log10 Kd (nM)": "2.21", "seen in": "6 of 6", "signal with controls": "1 of 18"}
{"CDR-L1": "KLREVQHVETKQKNNVA", "CDR-L2": "NNSTRES", "CDR-L3": "QDYYRLPLS", "group": "En_HC", "mean log10 Kd (nM)": "1.57", "seen in": "1 of 6", "signal with controls": "0 of 18"}
{"CDR-L1": "KLWQSTLYESRNKNSVA", "CDR-L2": "WAPTRES", "CDR-L3": "QQYHRLPVS", "group": "Rand", "mean log10 Kd (nM)": "not detected", "seen in": "0 of 6", "signal with controls": "0 of 18"}

A sequence measured in both rounds can read differently, since the two assays cover different ranges.
Of ten entries with the parent sequence, four were seen in most replicates (averages 0.34 to 2.37), three in one and three in none, so single entries are noisy.
Empty control strains, which show no peptide, gave a signal in 4% of pairings with all light chain designs; the median was 2.64 and 95% of these signals were weaker than 1.59. No background was subtracted. The control count says in how many pairings with the empty strains this scFv gave a signal.
In the paper, a design with two or fewer of six values counts as a poor binder.